From patent US11306156 (dated 2022) come the findings set out here.

Chains of the proteins cited; added tags and fusions are not shown. Residues count along the entry.
UniProt P13726, 33-251 limits assumed: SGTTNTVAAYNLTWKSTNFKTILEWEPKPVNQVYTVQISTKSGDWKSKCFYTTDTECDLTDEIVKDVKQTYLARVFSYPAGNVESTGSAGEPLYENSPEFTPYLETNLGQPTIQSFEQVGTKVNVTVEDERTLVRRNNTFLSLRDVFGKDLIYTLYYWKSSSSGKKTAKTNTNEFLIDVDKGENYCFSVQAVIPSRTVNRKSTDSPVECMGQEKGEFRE

Assay [1] deals with T1, tissue factor (TF) antigen (human, UniProt P13726 33-251, limits assumed).
T1 construct: The construct of the antigen is not described
Nature of the assay: SPR; Fab captured by anti-His, TF as analyte; LCCA set 9828. Background: Surface plasmon resonance follows binding to a sensor surface in real time, without labels.

Assay [2] addresses T2, tissue factor (TF) antigen (human, UniProt P13726 33-251, limits assumed).
T2 construct: The construct of TF used in the SPR assay is not described
In words: SPR, Fab captured on anti-penta His surface, TF as analyte, 1:1 fit.

Usually Kd stands for the free concentration of one partner at which half of the binding sites on the other are occupied at equilibrium, for simple one-to-one binding.

B1: D3H44 Fab heterodimer, H Q39R_S186R / L Q38E_Q124E_Q160E_T180E (H1L1 Fab of LCCA set 9828) (Fab, V domains shown)
VH: EVQLVESGGGLVQPGGSLRLSCAASGFNIKEYYMHWVRRAPGKGLEWVGLIDPEQGNTIYDPKFQDRATISADNSKNTAYLQMNSLRAEDTAVYYCARDTAAYFDYWGQGTLVTVSS
VL: DIQMTQSPSSLSASVGDRVTITCRASRDIKSYLNWYQEKPGKAPKVLIYYATSLAEGVPSRFSGSGSGTDYTLTISSLQPEDFATYYCLQHGESPWTFGQGTKVEIKR
In assay [1], B1 displayed a Kd of 0.14 nM.

B2: D3H44 Fab heterodimer, H1L1 of LCCA Set # 9827 (H1 Q39R_Q179K; L1 Q38E_Q124E_Q160E_T180E) (Fab, V domains shown)
VH: EVQLVESGGGLVQPGGSLRLSCAASGFNIKEYYMHWVRRAPGKGLEWVGLIDPEQGNTIYDPKFQDRATISADNSKNTAYLQMNSLRAEDTAVYYCARDTAAYFDYWGQGTLVTVSS
VL: DIQMTQSPSSLSASVGDRVTITCRASRDIKSYLNWYQEKPGKAPKVLIYYATSLAEGVPSRFSGSGSGTDYTLTISSLQPEDFATYYCLQHGESPWTFGQGTKVEIKR
Consider B2, for which, in assay [2], binding was put at a Kd of 0.17 nM and the “change in KD with respect to wild type, -(log(KD_design) - log(KD_wt))” value was -0.03.

B3: D3H44 Fab heterodimer, H1L1 of LCCA Set # 9821 (H1 Q39R_D146G_H172R_Q179K; L1 Q38E_Q124E_Q160E_T180E) (Fab, V domains shown)
VH: EVQLVESGGGLVQPGGSLRLSCAASGFNIKEYYMHWVRRAPGKGLEWVGLIDPEQGNTIYDPKFQDRATISADNSKNTAYLQMNSLRAEDTAVYYCARDTAAYFDYWGQGTLVTVSS
VL: DIQMTQSPSSLSASVGDRVTITCRASRDIKSYLNWYQEKPGKAPKVLIYYATSLAEGVPSRFSGSGSGTDYTLTISSLQPEDFATYYCLQHGESPWTFGQGTKVEIKR
Turning to B3, in assay [2], the Kd stood at 0.07 nM and the “change in KD with respect to wild type, -(log(KD_design) - log(KD_wt))” value was 0.38.
